Values of other authors in patent publication US10273304B2, “Biomarker profiles for predicting outcomes of cancer therapy with ERBB3 inhibitors and/or chemotherapies” (Merrimack Pharmaceuticals, Inc., priority 2013, dated 2019).

Test system: patients whose tumors express EGFR
Conditions: cited from earlier work

cetuximab: monoclonal antibody that targets the epidermal growth factor receptor (EGFR)
patients who respond to monotherapy: 15-20%
